Results taken from ChEMBL document CHEMBL1151959, “Identification and biological evaluation of a series of 1H-benzo[de]isoquinoline-1,3(2H)-diones as hepatitis C virus NS5B polymerase inhibitors” (J Med Chem, 2009).

Assays:
[1] = Inhibition of HCV1b BK NS5B Cdelta21 RNA dependent RNA polymerase; design: species or system Hepatitis C virus (isolate BK)
How it was run: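 Truncated ΔC21 NS5B RdRp from the HCV genotype 1b BK strain or the genotype 2b 2b.2 strain. Values are the mean of two or more experiments, with SD within 30% of the mean.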

[2] = test system: Hepatitis C virus; assay: Antiviral activity against HCV1b Con1 infected in human Huh7 clone HBI10A cells expressing HEPREP 1b replicon by cell-ELISA assay; type: functional, organism-based, Hepacivirus hominis; settings: isolate Con1, Huh-7

SMILES: O=C1c2cccc3c(NCCO)ccc(c23)C(=O)N1c1cccc(Br)c1
- IC50 [1]: 0.02 µM
- EC50 [2]: 7.1 µM
